“And” between values parts separate entries of the source, which are not always exact repeats. Equal values may be shown once. Read-outs that look alike come from different tables or passages of the source.
How the values were obtained:
[1] = Solubility of peptides and lipopeptides in saline (visual inspection); format: physicochemical; settings: no higher concentrations were examined, read-out: soluble in saline at concentrations of at least
Experimental: FIG. 2 is a photographic representation showing the solubilities of lipopeptides designated [Th]-Lys(Pam2Cys-Ser-Ser)-[B] (left) and Pam2Cys-Ser-Ser-[Th]-[B] (right) in FIG. 1, wherein the polypeptide moieties have the amino acid sequences set forth in SEQ ID NO: 7 and SEQ ID NO: 5, respectively. Both solutions are approximately 1 mg/ml lipopeptide in saline solution.
Enhanced solubility was most evident in those cases where lipid was attached between the two epitopes at the approximate centre of the molecule. The lipopeptides designated [Th]-Lys(Pam2Cys)-[B] and [Th]-Lys(Pam3Cys)-[B] were soluble in saline at concentrations of at least 8 mg/ml (no higher concentrations were examined), whereas constructs in which lipid was attached to the N-terminus of the sequence formed opalescent solutions at concentrations as low as 0.25 mg/ml.
We considered that the insoluble nature of this construct would prevent it from being considered as a viable proposition for manufacture as a vaccine.

female mice = format: in vivo, BALB/c mice; settings: for Pregnancy status (No. of animals per group that dropped litters): subcutaneous, fertility experiment initiated two weeks after second dose

With `CCCCCCCCCCCCCCCC(=O)N[C@@H](CSCC(COC(=O)CCCCCCCCCCCCCCC)OC(=O)CCCCCCCCCCCCCCC)C(=O)NCCCC[C@H](NC(=O)[C@H](CO)NC(=O)[C@H](CCCCN)NC(=O)[C@H](CC(C)C)NC(=O)[C@H](CCC(=O)O)NC(=O)[C@@H](NC(=O)CNC(=O)[C@H](CCCCN)NC(=O)[C@@H](NC(=O)[C@H](CCC(N)=O)NC(=O)[C@H](Cc1ccccc1)NC(=O)[C@H](CCCNC(=N)N)NC(=O)[C@H](CC(N)=O)NC(=O)[C@H](CC(N)=O)NC(=O)[C@H](CC(C)C)NC(=O)[C@H](C)NC(=O)CN)[C@@H](C)CC)C(C)C)C(=O)N[C@@H](CCC(=O)O)C(=O)N[C@@H](Cc1c[nH]cn1)C(=O)N[C@@H](Cc1c[nH]c2ccccc12)C(=O)N[C@@H](CO)C(=O)N[C@@H](Cc1ccc(O)cc1)C(=O)NCC(=O)N[C@@H](CC(C)C)C(=O)N[C@@H](CCCNC(=N)N)C(=O)N1CCC[C@H]1C(=O)NCC(=O)O` (some centres unmarked) [[Th]-Lys(Pam3Cys)-[B]] the solubility [1] was at least 8000 µg/mL, the “Pregnancy status (No. of animals per group that dropped litters)” value (female mice; 1 nmole) was 5 of 5 and 5/5 and the “Pregnancy status (No. of animals per group that dropped litters)” value (female mice; 10 nmole) was 3 of 5 and 3/5. For the same molecule, the “Incidence of pregnancy 13 weeks after 2nd Dose” value (female mice; 20 nmoles subcutaneously, animals per group of five) was “still infertile and 0/5” and the “Incidence of pregnancy 2 weeks after 2nd Dose” value (female mice; 20 nmoles subcutaneously, animals that dropped litters per group of five) was “None of the mice and 0/5”.
